Results: ChEMBL document CHEMBL1129681, “Synthesis, absolute configuration, and biological profile of the enantiomers of trans-[2-(2,6-dimethoxyphenoxy)ethyl] [(3-p-tolyl-2,3-dihydro-1,4-benzodioxin-2-yl)methyl]amine (mephendioxan), a potent competitive alpha 1A-adrenoreceptor antagonist” (J Med Chem, 1996)

Amino acid sequences for entries named in this document (tags omitted).
UniProt P15823, whole entry: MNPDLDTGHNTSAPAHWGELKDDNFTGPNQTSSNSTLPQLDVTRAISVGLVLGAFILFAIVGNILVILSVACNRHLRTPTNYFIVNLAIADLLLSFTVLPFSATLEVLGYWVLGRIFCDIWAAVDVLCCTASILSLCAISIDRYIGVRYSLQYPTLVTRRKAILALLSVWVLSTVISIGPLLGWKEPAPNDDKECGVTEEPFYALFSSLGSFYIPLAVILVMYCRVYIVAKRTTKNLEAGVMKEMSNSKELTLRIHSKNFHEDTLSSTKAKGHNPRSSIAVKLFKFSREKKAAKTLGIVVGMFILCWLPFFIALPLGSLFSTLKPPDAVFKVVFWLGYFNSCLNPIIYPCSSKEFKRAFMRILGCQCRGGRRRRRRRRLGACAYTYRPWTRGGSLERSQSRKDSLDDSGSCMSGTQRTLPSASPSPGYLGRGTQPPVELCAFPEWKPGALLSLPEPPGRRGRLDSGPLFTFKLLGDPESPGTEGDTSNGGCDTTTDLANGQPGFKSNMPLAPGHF
UniProt P23944, whole entry: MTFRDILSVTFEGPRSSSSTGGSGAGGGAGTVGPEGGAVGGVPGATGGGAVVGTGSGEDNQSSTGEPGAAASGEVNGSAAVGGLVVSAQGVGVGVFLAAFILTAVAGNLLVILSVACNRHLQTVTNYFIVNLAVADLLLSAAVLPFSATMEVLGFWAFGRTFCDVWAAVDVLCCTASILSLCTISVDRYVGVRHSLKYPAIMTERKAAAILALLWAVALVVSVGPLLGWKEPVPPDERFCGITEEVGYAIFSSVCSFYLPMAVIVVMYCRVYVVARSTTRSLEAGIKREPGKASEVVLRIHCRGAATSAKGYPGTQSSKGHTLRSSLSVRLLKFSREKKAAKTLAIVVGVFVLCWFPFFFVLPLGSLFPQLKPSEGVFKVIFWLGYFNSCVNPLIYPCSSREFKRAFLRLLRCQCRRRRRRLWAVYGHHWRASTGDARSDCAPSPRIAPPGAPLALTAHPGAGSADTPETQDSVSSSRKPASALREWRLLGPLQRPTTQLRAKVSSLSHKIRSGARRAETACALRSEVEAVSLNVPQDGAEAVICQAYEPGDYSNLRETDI
UniProt P19327, whole entry: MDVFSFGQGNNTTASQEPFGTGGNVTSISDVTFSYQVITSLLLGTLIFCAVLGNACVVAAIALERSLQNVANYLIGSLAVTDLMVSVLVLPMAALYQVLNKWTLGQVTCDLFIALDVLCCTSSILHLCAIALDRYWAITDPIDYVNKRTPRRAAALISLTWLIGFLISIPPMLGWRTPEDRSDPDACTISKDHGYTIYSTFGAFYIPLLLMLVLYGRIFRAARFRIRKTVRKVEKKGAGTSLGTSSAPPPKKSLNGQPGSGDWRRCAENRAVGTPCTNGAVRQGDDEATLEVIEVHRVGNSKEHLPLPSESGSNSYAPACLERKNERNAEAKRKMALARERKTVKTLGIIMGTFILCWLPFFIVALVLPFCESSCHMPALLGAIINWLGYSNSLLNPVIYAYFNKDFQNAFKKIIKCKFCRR

Assays:
[1] = target: Adrenergic receptor alpha-1 (Rattus norvegicus, UniProt P15823+P23944+P43140); test: Binding affinity towards Alpha-1 adrenergic receptor in rat cerebral cortex using [3H]prazosin as radioligand; format: tissue-based
How it was run: (§1)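 Rat brain membranes (native receptors): cerebral cortex for α1 with [3H]prazosin (79.2 Ci/mmol) and α2 with [3H]rauwolscine (80.5 Ci/mmol); hippocampus for 5-HT1A with [3H]8-OH-DPAT (162.9 Ci/mmol); striatum for D2 with [3H]spiperone (17.7 Ci/mmol). Radioligand competition by test drug; mean ± SE of at least three separate experiments in triplicate.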

[2] = target: T1, Alpha-1A adrenergic receptor (Rattus norvegicus, UniProt P43140); test: Binding affinity towards Alpha-1A adrenergic receptor in rat hippocampal membranes using [3H]prazosin as radioligand; format: cell membranes, Hippocampus
T1 sequence (P43140 whole entry): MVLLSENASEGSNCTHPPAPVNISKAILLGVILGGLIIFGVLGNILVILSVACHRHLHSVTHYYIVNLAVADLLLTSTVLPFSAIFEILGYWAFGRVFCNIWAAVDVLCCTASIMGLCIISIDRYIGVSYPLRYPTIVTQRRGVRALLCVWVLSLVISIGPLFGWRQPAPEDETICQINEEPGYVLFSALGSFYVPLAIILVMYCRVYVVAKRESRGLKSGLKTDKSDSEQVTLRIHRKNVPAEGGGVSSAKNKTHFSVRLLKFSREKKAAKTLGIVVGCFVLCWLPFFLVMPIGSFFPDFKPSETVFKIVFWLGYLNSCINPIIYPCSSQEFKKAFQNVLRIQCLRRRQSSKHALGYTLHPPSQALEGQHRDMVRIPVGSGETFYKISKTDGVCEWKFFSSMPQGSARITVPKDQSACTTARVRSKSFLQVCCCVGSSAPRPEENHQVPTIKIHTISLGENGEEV
How it was run: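 Native α1A site from rat hippocampus membranes pretreated with CEC, labelled with [3H]prazosin in competition binding. Mean ± SE of at least three separate experiments, each run in triplicate.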

[3] = target: 5-hydroxytryptamine receptor 1A (Rattus norvegicus, UniProt P19327); test: Binding affinity towards 5-hydroxytryptamine 1A receptor in rat hypocampus membrane using [3H]8-OH-DPAT as radioligand; format: cell membranes; how it was run: as §1
[4] = target: Alpha-1D adrenergic receptor (Rattus norvegicus, UniProt P23944); test: Binding affinity towards Alpha-1D adrenergic receptor in rat brain using [3H]prazosin as radioligand; format: tissue-based
[5] = target: Alpha-1B adrenergic receptor (Rattus norvegicus, UniProt P15823); test: Binding affinity towards Alpha-1B adrenergic receptor in rat liver using [3H]prazosin as radioligand

- Ki [1]: 27.8 nM
- Ki [2]: 6.38 nM
- Ki [3]: > 10000 nM
- Ki [4]: 82.4 nM
- Ki [5]: 380 nM
SMILES: COC(=O)C1=C(C)NC(C)=C(C(=O)OCCCN2CCC(c3ccccc3)(c3ccccc3)CC2)[C@H]1c1cccc([N+](=O)[O-])c1 [NIGULDIPINE]
